In assay [1] the test system is JAK-STAT signalling in HeLa cells. The assay is described as follows: JAK-STAT signalling assay (OSM-triggered pSTAT1(2)-luciferase reporter in HeLa cells). The class given is cell-based. Conditions: Homo sapiens, read-out: STAT signalling EC50.
Assay [2] deals with Recombinant human JAK1 catalytic domain (Homo sapiens (Human), UniProt P23458). The assay is described as follows: JAK1 inhibition assay. Type of assay: biochemical. The settings on record: semi-quantitative score.

Chains of the proteins cited; added tags and fusions are not shown. Residues count along the entry.
UniProt P23458, 850-1154: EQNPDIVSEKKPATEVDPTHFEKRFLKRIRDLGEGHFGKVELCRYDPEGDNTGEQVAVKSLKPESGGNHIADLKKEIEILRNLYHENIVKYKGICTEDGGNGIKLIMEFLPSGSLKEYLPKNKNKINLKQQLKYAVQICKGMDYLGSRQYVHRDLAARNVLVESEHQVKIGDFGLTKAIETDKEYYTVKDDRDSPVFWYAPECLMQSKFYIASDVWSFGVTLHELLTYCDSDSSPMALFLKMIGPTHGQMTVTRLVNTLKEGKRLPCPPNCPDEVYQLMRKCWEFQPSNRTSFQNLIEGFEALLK

Structures are written as SMILES. Bounds are passed on as bounds.

By EC50 is commonly meant the concentration giving half of the maximal effect. In the case of `O=C(Nc1nc2cccc(-c3ccc(NS(=O)(=O)C4CC4)cc3)n2n1)C1CC1` [Compound 59, N-(5-(4-(cyclopropanesulfonamido)phenyl)-[1,2,4]triazolo[1,5-a]pyridin-2-yl)cyclopropanecarboxamide], in assay [1], the EC50 is > 1000 nM.
The same measure, in the same setting: in the case of `NC(=O)c1cccc(NCc2ccc(-c3cccc4nc(NC(=O)C5CC5)nn34)cc2)c1` [Compound 228, 3-{4-[2-(Cyclopropanecarbonyl-amino)-[1,2,4]triazolo[1,5-a]pyridin-5-yl]-benzylamino}-benzamide] it was 501 to 1000 nM.
Broadly, the IC50 is the point on the concentration scale where inhibition reaches its midpoint. For the compound `O=C(Nc1nc2cccc(-c3ccc(CN4CCOCC4)cc3)n2n1)C1CC1` [Compound 18, N-(5-(4-(morpholinomethyl)phenyl)-[1,2,4]triazolo[1,5-a]pyridin-2-yl)cyclopropanecarboxamide], the IC50 in assay [2] is < 100 nM.

The record behind these values is patent publication US10206907B2, “Compounds useful for the treatment of degenerative and inflammatory diseases” (GALAPAGOS NV, priority 2008, dated 2019).
